Test [1] has as its target T1, Delta-type opioid receptor (Mus musculus, UniProt P32300). As to the kind of experiment: Antagonist activity at delta opioid receptor in ICR mouse vas deferens. The settings on record: strain ICR.
For test [2], the target named is T1, Delta-type opioid receptor. The test is described as follows: Agonist activity at delta opioid receptor in ICR mouse vas deferens assessed as inhibition of electrically-stimulated muscle contraction. The settings on record: strain ICR.
In a further test the target is Mu-type opioid receptor (Rattus norvegicus, UniProt P33535). As to the kind of experiment: Displacement of [3H]DAMGO from rat mu opioid receptor expressed in human/mouse HN9.10 cell membranes after 3 hrs by liquid scintillation counting analysis.
Test [3] has as its target Delta-type opioid receptor (Homo sapiens, UniProt P41143). The test is described as follows: Displacement of [3H]DPDPE from human delta opioid receptor expressed in human/mouse HN9.10 cell membranes after 3 hrs by liquid scintillation counting analysis.

By UniProt entry, the sequences of proteins in these tests, tags left out.
UniProt P32300, whole entry, looked up: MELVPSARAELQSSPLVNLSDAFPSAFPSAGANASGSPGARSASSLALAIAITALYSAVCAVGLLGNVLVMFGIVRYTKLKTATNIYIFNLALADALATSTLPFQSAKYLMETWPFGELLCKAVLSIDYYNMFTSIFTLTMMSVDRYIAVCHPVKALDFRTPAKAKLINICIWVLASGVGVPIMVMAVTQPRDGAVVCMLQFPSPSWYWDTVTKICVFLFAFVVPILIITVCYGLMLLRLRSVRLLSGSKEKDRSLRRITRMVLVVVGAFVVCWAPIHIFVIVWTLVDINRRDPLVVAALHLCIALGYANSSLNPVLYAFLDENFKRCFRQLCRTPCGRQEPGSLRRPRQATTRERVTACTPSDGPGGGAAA
UniProt P33535, whole entry, looked up: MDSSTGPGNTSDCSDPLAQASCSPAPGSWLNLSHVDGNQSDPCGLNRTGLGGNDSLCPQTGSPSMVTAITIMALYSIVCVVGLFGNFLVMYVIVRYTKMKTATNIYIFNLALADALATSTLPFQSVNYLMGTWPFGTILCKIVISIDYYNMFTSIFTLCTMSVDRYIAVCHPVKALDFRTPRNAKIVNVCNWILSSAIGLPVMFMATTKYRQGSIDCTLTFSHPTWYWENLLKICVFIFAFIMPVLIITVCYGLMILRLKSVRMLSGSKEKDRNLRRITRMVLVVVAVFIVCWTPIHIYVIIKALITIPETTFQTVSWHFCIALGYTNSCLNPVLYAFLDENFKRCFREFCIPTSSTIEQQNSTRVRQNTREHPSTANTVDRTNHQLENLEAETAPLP
UniProt P41143, whole entry, looked up: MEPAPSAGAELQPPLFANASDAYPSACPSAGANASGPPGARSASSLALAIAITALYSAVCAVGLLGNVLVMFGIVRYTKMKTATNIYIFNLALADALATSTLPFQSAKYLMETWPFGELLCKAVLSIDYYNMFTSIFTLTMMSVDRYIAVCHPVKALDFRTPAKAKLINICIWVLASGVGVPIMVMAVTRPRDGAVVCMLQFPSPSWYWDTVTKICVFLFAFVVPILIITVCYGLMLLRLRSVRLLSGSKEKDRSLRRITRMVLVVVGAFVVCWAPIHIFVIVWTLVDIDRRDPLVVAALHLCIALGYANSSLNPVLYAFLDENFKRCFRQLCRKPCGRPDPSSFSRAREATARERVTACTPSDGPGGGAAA

Turning to `Cc1cc(O)cc(C)c1C[C@H](N)C(=O)N1Cc2ccccc2C[C@@H]1C(=O)NCC(=O)N[C@@H](Cc1ccc(Cl)cc1)C(=O)O`, the results for the IC50 in test [1] and in test [2] were 0.17 µM and 0.00021 µM, respectively.

Turning to `Cc1cc(O)cc(C)c1C[C@H](N)C(=O)N1Cc2ccccc2C[C@@H]1C(=O)N[C@H](Cc1ccc(Cl)cc1)C(=O)N1CCC(Cn2cncn2)(C2CCCCC2)CC1`, the IC50 (usually the concentration needed to halve the response being measured) in test [2] is 0.81 µM. Further, at Mu-type opioid receptor, the affinity, expressed as Ki, was 0.0064 µM and the pIC50 – broadly, the IC50 on a negative log10 scale, so that one unit is a factor of ten – was found to be 7.87. For the same molecule, in test [3], the Ki (commonly the dissociation constant of the complex between target and ligand, obtained from inhibition or displacement) came out at 0.25 µM; the pIC50 stood at 6.28.

`Cc1cc(O)cc(C)c1C[C@H](N)C(=O)N1Cc2ccccc2C[C@@H]1C(N)=O`: the affinity in test [3], expressed as Ki, was 0.057 µM.

In the case of `Cc1cc(O)cc(C)c1C[C@H](N)C(=O)N1Cc2ccccc2C[C@H]1C(N)=O`, the affinity in test [3] corresponds to a Ki of 0.0012 µM.

The record behind these values is ChEMBL document CHEMBL2406907, “Chiral Effect of a Phe Residue in Position 3 of the Dmt(1)-L(or D)-Tic(2) Analogues on Opioid Functional Activities” (2013).
